# From patent publication US20160206597A1, “New Use” (priority 2013, published 2016)
# Tested on: patients with chronic heart failure with preserved left-ventricular ejection fraction (HF-PEF)
# Assay: Safety and tolerability in the 36-week HF-PEF study
# Details: 36-week study
substance,measurement,setting,value
"trisodium [3-((1S,3R)-1-biphenyl-4-ylmethyl-3-ethoxycarbonyl-1-butylcarbamoyl) propionate-(S)-3′-methyl-2′-(pentanoyl{2″-(tetrazol-5-ylate)biphenyl-4′-ylmethyl}amino)butyrate]hemipentahydrate [LCZ696]",Adverse event atrial fibrillation (number of patients),,2 patients
same,Adverse event atrial fibrillation (percent of patients),,2.0%
same,Angio-oedema occurrence,,one patient
same,Deaths among serious adverse events,,one death
same,Patients with one or more serious adverse events (number),,22 patients
same,Patients with one or more serious adverse events (percent),,15%
same,Tolerability,adverse effects similar to valsartan,well tolerated
